Assay results as given in patent publication US20070072840A1, “POLYMORPHIC FORMS OF QUETIAPINE” (priority 2005, published 2007).

How the values were obtained:
[1] = compared with the known hemifumarate salt
[2] = result in words, conditions not given

Quetiapine Oxalate [oxalate salt of quetiapine]
solubility in water [1]: improved solubility in water | stability [2]: stable
